Measured values: PMC3794980, “Identification of Conserved and HLA Promiscuous DENV3 T-Cell Epitopes” (PLoS Neglected Tropical Diseases, 2013)
Like-named read-outs stand apart in the source and are kept apart here.

What was measured:
Experiment in all cases: biochemical
Type in all cases: binding
[1] = molecular target: DRB1*1501 (Homo sapiens, UniProt P01903+P01911)
[2] = molecular target: DRB1*0901 (Homo sapiens, UniProt P01903+P01911, A100R/A103E/D57H/D86V/F55Y/F60I/F76Y/I96F/K127E/L162R/M171V/P40D/Q125H/Q99R/R33Q/R42F/S133A/S66N/T210M/V115G/W38K/Y107V/Y59G/Y89S)
[3] = molecular target: DRB1*0401 (Homo sapiens, UniProt P01903+P01911, A100K/A169T/F76Y/I96L/K127E/L162R/M171V/N62H/P40V/Q125Y/R42H/S133A/S149N/S66Y/V115G/V209L/W38E)
[4] = molecular target: DRB1*0802 (Homo sapiens, UniProt P01903+P01911, A100R/A103L/A169T/F76Y/H45Y/I96F/K41T/L162R/M171V/P40S/Q125H/Q178H/Q39Y/Q99D/R218S/R42G/S66Y/V115G/W38E)
[5] = molecular target: DRB1*0101 (Homo sapiens, UniProt P01903+P01911, A100R/D57E/F55L/F60I/F76Y/I96L/L162R/M171V/P40L/Q125E/R42F/V115G/Y59C)
[6] = molecular target: DRB1*0405 (Homo sapiens, UniProt P01903+P01911, A100R/A169T/D86S/F76Y/I96L/K127E/L162R/M171V/N62H/P40V/Q125Y/R42H/S133A/S149N/S66Y/V115G/V209L/W38E)
[7] = molecular target: DRB1*1302 (Homo sapiens, UniProt P01903+P01911, A100E/A169T/K41T/L162R/M171V/P40S/Q125H/Q178H/Q39Y/Q99D/R42S/S66N/T262R/V115G/W38E/Y61H)
[8] = molecular target: DRB1*0301 (Homo sapiens, UniProt P01903+P01911, A100K/A102G/A103R/A169T/F55Y/I96L/K41T/L162R/M171V/P40S/Q125H/Q178H/Q39Y/R42S/S66N/T106N/T262R/W38E/Y61H)
[9] = molecular target: DRB1*0404 (Homo sapiens, UniProt P01903+P01911, A100R/A169T/F76Y/I96L/K127E/L162R/M171V/N62H/P40V/Q125Y/R42H/S133A/S149N/S66Y/V209L/W38E)
[10] = molecular target: DRB1*1101 (Homo sapiens, UniProt P01903+P01911, A100R/A169T/A87E/I96F/K41T/L162R/M171V/P40S/Q125H/Q178H/Q39Y/Q99D/R42S/S66Y/T262R/V115G/W38E)
[11] = molecular target: DRB1*0701 (Homo sapiens, UniProt P01903+P01911, A100R/A102G/A103Q/D57E/D86V/E43K/F76Y/K127E/L162R/M171V/P40G/Q125H/Q99D/R33Q/R42Y/R54Q/S133A/S66F/T210M/V115G/Y107V/Y59L/Y89S)
[12] = read-out: Binding Affinity (nM) DRB1*0301
[13] = read-out: Binding Affinity (nM) DRB1*1101
[14] = competitive inhibition of radiolabeled standard peptide, '-' distinct from ND, read-out: Binding Affinity (nM) DRB1*0901
[15] = read-out: Binding Affinity (nM) DRB1*0401
[16] = competitive inhibition of radiolabeled standard peptide, '-' distinct from ND, read-out: Binding Affinity (nM) DRB1*1302
[17] = read-out: Binding Affinity (nM) DRB1*1302
[18] = read-out: Binding Affinity (nM) DRB1*0405
[19] = read-out: Binding Affinity (nM) DRB1*0404

`CSCC[C@H](NC(=O)[C@H](C)NC(=O)CNC(=O)[C@H](CCC(=O)O)NC(=O)[C@H](CCC(N)=O)NC(=O)[C@H](CO)NC(=O)CNC(=O)[C@@H](N)CC(C)C)C(=O)N[C@@H](Cc1c[nH]cn1)C(=O)N[C@H](C(=O)N[C@@H](C)C(=O)N[C@@H](CC(C)C)C(=O)N[C@H](C(=O)NCC(=O)N[C@@H](C)C(=O)O)[C@@H](C)O)[C@@H](C)O` showed an IC50 [1] of 6.06 µM, an IC50 [2] of 3720 nM and an IC50 [3] of 4330 nM. For the same compound, the IC50 [4] was 3650 nM, the IC50 [5] was 0.588 µM and the IC50 [6] was 13200 nM. For the same compound, the IC50 [7] was 6610 nM, the IC50 [8, 12] was over 20000 nM and the IC50 [9] was 17100 nM. It also gave an IC50 [10, 13] of over 20000 nM and an IC50 [11] of 2.31 µM.

`CSCC[C@H](N)C(=O)N[C@@H](CCCNC(=N)N)C(=O)N[C@@H](CS)C(=O)N[C@H](C(=O)NCC(=O)N[C@H](C(=O)NCC(=O)N[C@@H](CC(N)=O)C(=O)N[C@@H](CCCNC(=N)N)C(=O)N[C@@H](CC(=O)O)C(=O)N[C@@H](Cc1ccccc1)C(=O)N[C@H](C(=O)N[C@@H](CCC(=O)O)C(=O)NCC(=O)N[C@@H](CC(C)C)C(=O)O)C(C)C)C(C)C)C(C)C` [Envelope 1-15] was tested, and the IC50 [1] was 5.79 µM, the IC50 [2, 14] was over 20000 nM and the IC50 [3, 15] was over 20000 nM. It also gave an IC50 ([4]; read-out: Binding Affinity (nM) DRB1*0802) of over 20000 nM, an IC50 [5] of 11.1 µM and an IC50 [6] of 3130 nM. The IC50 [7, 16] was 6090 nM, the IC50 [8] was 5620 nM and the IC50 [9] was 6340 nM. It also gave an IC50 [10, 13] of over 20000 nM and an IC50 [11] of 6.72 µM.

In the case of `CC(C)[C@H](N)C(=O)N[C@H](C(=O)N[C@@H](Cc1ccccc1)C(=O)N[C@@H](CCCCN)C(=O)N[C@@H](CC(N)=O)C(=O)N[C@@H](C)C(=O)N[C@@H](Cc1c[nH]cn1)C(=O)N[C@@H](C)C(=O)N[C@@H](CCCCN)C(=O)N[C@@H](CCCCN)C(=O)N1CCC[C@H]1C(=O)N[C@@H](CCC(=O)O)C(=O)N[C@H](C(=O)N[C@H](C(=O)N[C@H](C(=O)O)C(C)C)C(C)C)C(C)C)[C@@H](C)O` [Envelope 236-250], the IC50 [2] is reported as 1520 nM, the IC50 [3, 15] is reported as over 20000 nM and the IC50 [4] is reported as 419 nM. For the same compound, the IC50 [5] was 0.34 µM, the IC50 [6] was 8610 nM and the IC50 [7, 17] was over 20000 nM. For the same compound, the IC50 [8] was 9090 nM, the IC50 [9] was 8860 nM and the IC50 [10] was 10200 nM. The IC50 [11] was 0.56 µM.

`CC[C@H](C)[C@H](NC(=O)[C@H](CCC(=O)O)NC(=O)[C@@H](NC(=O)[C@H](C)NC(=O)CNC(=O)[C@@H](NC(=O)[C@H](CC(C)C)NC(=O)[C@H](C)N)[C@@H](C)O)[C@@H](C)O)C(=O)N[C@@H](CCC(N)=O)C(=O)N[C@@H](CC(N)=O)C(=O)N[C@@H](CO)C(=O)NCC(=O)NCC(=O)N[C@H](C(=O)N[C@@H](CO)C(=O)O)[C@@H](C)O` [Envelope 261-275] was tested, and the IC50 [1] was 9.9 µM, the IC50 [2, 14] was 14100 nM and the IC50 [3] was 5020 nM. For the same compound, the IC50 [4] was 2370 nM, the IC50 [5] was 5.52 µM and the IC50 [6, 18] was over 20000 nM. The IC50 [7, 16] was 4170 nM, the IC50 [8] was 6300 nM and the IC50 [9] was 13900 nM. The IC50 [10, 13] was over 20000 nM.

For `CC[C@H](C)[C@H](NC(=O)CNC(=O)[C@@H](NC(=O)[C@@H](NC(=O)[C@@H](NC(=O)[C@H](CC(N)=O)NC(=O)[C@H](CO)NC(=O)[C@H](CCC(=O)O)NC(=O)CNC(=O)[C@H](Cc1ccccc1)NC(=O)[C@@H]1CCCN1C(=O)[C@@H]1CCCN1C(=O)[C@H](CCC(=O)O)NC(=O)[C@H](C)NC(=O)[C@@H](N)CCC(=O)O)[C@@H](C)CC)C(C)C)[C@@H](C)CC)C(=O)O` [Envelope 366-380], the IC50 [2, 14] was 2780 nM, the IC50 [3] was 7080 nM and the IC50 [4] was 762 nM. For the same compound, the IC50 [5] was 1.04 µM, the IC50 [6] was 3590 nM and the IC50 [8] was 14900 nM. The IC50 [9] was 8930 nM, the IC50 [10, 13] was over 20000 nM and the IC50 [11] was 0.552 µM.

For `CC[C@H](C)[C@H](N)C(=O)N[C@H](C(=O)N[C@H](C(=O)NCC(=O)N[C@H](C(=O)NCC(=O)N[C@@H](CC(=O)O)C(=O)N[C@@H](CC(N)=O)C(=O)N[C@@H](C)C(=O)N[C@@H](CC(C)C)C(=O)N[C@@H](CCCCN)C(=O)N[C@H](C(=O)N[C@@H](CC(N)=O)C(=O)N[C@@H](Cc1c[nH]c2ccccc12)C(=O)N[C@@H](Cc1ccc(O)cc1)C(=O)O)[C@@H](C)CC)[C@@H](C)CC)[C@@H](C)CC)C(C)C` [Envelope 376-390], the IC50 [1] was 0.448 µM, the IC50 [2, 14] was 6030 nM and the IC50 [3] was 4980 nM. The IC50 [4] was 85 nM, the IC50 [5] was 0.476 µM and the IC50 [6] was 10300 nM. The IC50 [9] was 1090 nM, the IC50 [10, 13] was over 20000 nM and the IC50 [11] was 2.98 µM.

`CC[C@H](C)[C@H](NC(=O)[C@H](C)NC(=O)CNC(=O)[C@@H](NC(=O)[C@H](CCC(=O)O)NC(=O)CNC(=O)[C@@H](NC(=O)[C@@H](NC(=O)[C@@H](NC(=O)[C@H](CCC(N)=O)NC(=O)[C@H](Cc1ccccc1)NC(=O)[C@@H](NC(=O)CNC(=O)[C@@H]1CCCN1)[C@@H](C)O)[C@@H](C)O)[C@@H](C)O)[C@@H](C)O)[C@@H](C)CC)C(=O)N[C@@H](C)C(=O)O` [NS3 113-127] was tested, and the IC50 [1] was 3.04 µM, the IC50 [2, 14] was 333 nM and the IC50 [3] was 18 nM. The IC50 [4] was 7890 nM, the IC50 [5] was 0.226 µM and the IC50 [6] was 3930 nM. For the same compound, the IC50 [7, 16] was 7560 nM, the IC50 [8, 12] was over 20000 nM and the IC50 [9] was 2080 nM. The IC50 [10] was 231 nM.

`CC[C@H](C)[C@H](NC(=O)[C@@H](NC(=O)[C@@H]1CCCN1C(=O)[C@@H](N)CO)[C@@H](C)CC)C(=O)N[C@@H](CC(N)=O)C(=O)N[C@@H](CCCNC(=N)N)C(=O)N[C@@H](CCC(=O)O)C(=O)NCC(=O)N[C@@H](CCCCN)C(=O)N[C@H](C(=O)N[C@H](C(=O)NCC(=O)N[C@@H](CC(C)C)C(=O)N[C@@H](Cc1ccc(O)cc1)C(=O)NCC(=O)O)C(C)C)C(C)C` [NS3 137-151] showed an IC50 [1] of 0.502 µM, an IC50 [2, 14] of 7520 nM and an IC50 [3] of 4380 nM. It also gave an IC50 [4] of 3210 nM, an IC50 [5] of 0.843 µM and an IC50 [6] of 11200 nM. The IC50 [7, 16] was 3510 nM, the IC50 [9, 19] was over 20000 nM and the IC50 [11] was 12.6 µM.

Compound `CC[C@H](C)[C@H](NC(=O)[C@H](CCC(=O)O)NC(=O)CNC(=O)[C@H](CCCNC(=N)N)NC(=O)[C@H](CCCCN)NC(=O)[C@@H](N)CC(C)C)C(=O)N[C@H](C(=O)N[C@@H](Cc1c[nH]cn1)C(=O)N[C@@H](Cc1c[nH]cn1)C(=O)N[C@@H](C)C(=O)N[C@H](C(=O)N[C@@H](CO)C(=O)N[C@@H](CCCNC(=N)N)C(=O)NCC(=O)N[C@@H](CO)C(=O)N[C@@H](C)C(=O)N[C@@H](CCCCN)C(=O)O)C(C)C)[C@@H](C)O` [NS5 45-61] has an IC50 [1] of 0.044 µM, an IC50 [2] of 376 nM and an IC50 [3] of 4 nM. For the same compound, the IC50 [4] was 2470 nM, the IC50 [5] was 3.86 µM and the IC50 [7, 17] was over 20000 nM. The IC50 [8] was 13200 nM, the IC50 [9] was 645 nM and the IC50 [11] was 0.453 µM.

`CC[C@H](C)[C@H](NC(=O)[C@H](CC(=O)O)NC(=O)[C@H](CCSC)NC(=O)[C@@H](N)C(C)C)C(=O)N[C@H](C(=O)N[C@@H](CO)C(=O)N[C@@H](CCCNC(=N)N)C(=O)N[C@@H](CCCCN)C(=O)N[C@@H](CC(=O)O)C(=O)N[C@@H](CCC(N)=O)C(=O)N[C@@H](CCCNC(=N)N)C(=O)NCC(=O)N[C@@H](CO)C(=O)NCC(=O)N[C@@H](CCC(N)=O)C(=O)N[C@H](C(=O)NCC(=O)O)C(C)C)[C@@H](C)CC` [NS5 588-604] showed an IC50 [1] of 2.38 µM, an IC50 ([2]; read-out: Binding Affinity (nM) DRB1*0901) of over 20000 nM and an IC50 [3] of 5720 nM. For the same compound, the IC50 [4] was 5750 nM, the IC50 [5] was 13.4 µM and the IC50 [6, 18] was over 20000 nM. The IC50 [7] was 4530 nM, the IC50 [9, 19] was over 20000 nM and the IC50 [10] was 124 nM. It also gave an IC50 [11] of 17.1 µM.
